Data taken from patent publication US6426359B1 (Pfizer Inc., priority 1996, dated 2002).

Chains of the proteins cited; added tags and fusions are not shown. Lines headed by an entry give the natural chain unless they say otherwise; changes in a name come on top.
UniProt P43116: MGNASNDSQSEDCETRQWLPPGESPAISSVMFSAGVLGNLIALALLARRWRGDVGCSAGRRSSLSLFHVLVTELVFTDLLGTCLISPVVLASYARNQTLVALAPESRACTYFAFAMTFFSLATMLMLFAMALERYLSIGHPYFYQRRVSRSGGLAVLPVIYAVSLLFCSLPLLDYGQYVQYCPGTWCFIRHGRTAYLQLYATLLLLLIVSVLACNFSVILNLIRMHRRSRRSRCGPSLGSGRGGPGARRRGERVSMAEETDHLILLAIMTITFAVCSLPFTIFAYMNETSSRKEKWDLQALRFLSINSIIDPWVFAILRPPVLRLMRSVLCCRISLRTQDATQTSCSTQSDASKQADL

Target: T1, human EP2 receptor (Homo sapiens, UniProt P43116)
T1 construct: cDNAs representing the complete open reading frames of the human EP2 and EP4 receptors; expressed in transfected cells
Assay: Scatchard analysis of [3-H]PGE2 binding in 293-S line expressing EP2
Details: read-out: Kd for PGE2 (EP2), 293-S/EP2 line selected for compound screening, approximately 338,400 receptors per cell

- Kd: 12 nM
SMILES: CCCCC[C@H](O)/C=C/[C@H]1[C@H](O)CC(=O)[C@@H]1C/C=C\CCCC(=O)O [PGE2, prostaglandin E2]
